Results on one compound are retold here after US20260001863A1, “NOVEL PYRIDAZINES” (Boehringer Ingelheim International GmbH, priority 2019, published 2026).

For this assay, the system named is plasma LPA. The assay can be described thus: Assay C: In Vivo (plasma LPA reduction after oral dosing). The note with it: rats, oral 5 mg/kg, plasma 8 hours post application vs baseline; sum of LPA 16:0, 18:0, 18:1, 18:2, 20:4.

On to `CCc1nc2c(F)cc(N3CCN(CC(=O)N4CC(O)C4)CC3)cn2c1N(C)c1nc(-c2ccc(F)cc2)c(C#N)s1`, for which the “LPA reduction at 8 h” value worked out at 60.3%.
